Here are results for one molecule from patent US20120258109A1.

The target of this test is TGF-alpha and Epiregulin expressed on HT-29 cells. Briefly: cell-based or functional assay.

B1: Antibody I (antibody, human IgG4 S228P, kappa, F234A L235A)
heavy: QVQLVQSGAEVKKPGSSVKVSCKASGYTFTDAYINWVRQAPGQGLEWMGWIWPGPVITYYNPKFKGRVTITADKSTSTAYMELSSLRSEDTAVYYCARREVLSPFAYWGQGTTVTVSSASTKGPSVFPLAPCSRSTSESTAALGCLVKDYFPEPVTVSWNSGALTSGVHTFPAVLQSSGLYSLSSVVTVPSSSLGTKTYTCNVDHKPSNTKVDKRVESKYGPPCPPCPAPEAAGGPSVFLFPPKPKDTLMISRTPEVTCVVVDVSQEDPEVQFNWYVDGVEVHNAKTKPREEQFNSTYRVVSVLTVLHQDWLNGKEYKCKVSNKGLPSSIEKTISKAKGQPREPQVYTLPPSQEEMTKNQVSLTCLVKGFYPSDIAVEWESNGQPENNYKTTPPVLDSDGSFFLYSRLTVDKSRWQEGNVFSCSVMHEALHNHYTQKSLSLSLG
light: DIVMTQSPDSLAVSLGERATINCRSSQSIVHSTGNTYLEWYQQKPGQPPKLLIYKVSNRFSGVPDRFSGSGSGTDFTLTISSLQAEDVAVYYCFHGTHVPYTFGGGTKVEIKRTVAAPSVFIFPPSDEQLKSGTASVVCLLNNFYPREAKVQWKVDNALQSGNSQESVTEQDSKDSTYSLSSTLTLSKADYEKHKVYACEVTHQGLSSPVTKSFNRGEC
Regarding B1, the Mean Ringspot Total Intensity of Fluorescence, HT-29 internalization, 40 ug/mL, 0 min post addition stood at 89; the Mean Ringspot Total Intensity of Fluorescence, HT-29 internalization, 40 ug/mL, 5 min post addition came to 261; the Mean Ringspot Total Intensity of Fluorescence, HT-29 internalization, 40 ug/mL, 15 min post addition was 717; the Mean Ringspot Total Intensity of Fluorescence, HT-29 internalization, 40 ug/mL, 30 min post addition was found to be 1490. This molecule had a Mean Ringspot Total Intensity of Fluorescence, HT-29 internalization, 40 ug/mL, 60 min post addition of 4130; a Mean Ringspot Total Intensity of Fluorescence, HT-29 internalization, 40 ug/mL, 120 min post addition of 4450; a Mean Ringspot Total Intensity of Fluorescence, HT-29 internalization, dose 0 ug/ml (background), 2 h of 1460; a Mean Ringspot Total Intensity of Fluorescence, HT-29 internalization, dose 0.34 ug/ml, 2 h of 2430. The same molecule returned a Mean Ringspot Total Intensity of Fluorescence, HT-29 internalization, dose 0.69 ug/ml, 2 h of 3440; a Mean Ringspot Total Intensity of Fluorescence, HT-29 internalization, dose 1.38 ug/ml, 2 h of 4350; a Mean Ringspot Total Intensity of Fluorescence, HT-29 internalization, dose 2.75 ug/ml, 2 h of 6500; a Mean Ringspot Total Intensity of Fluorescence, HT-29 internalization, dose 5.5 ug/ml, 2 h of 8470. In addition, the Mean Ringspot Total Intensity of Fluorescence, HT-29 internalization, dose 11 ug/ml, 2 h came to 11500; the Mean Ringspot Total Intensity of Fluorescence, HT-29 internalization, dose 22 ug/ml, 2 h was 15100; the Mean Ringspot Total Intensity of Fluorescence, HT-29 internalization, dose 44 ug/ml, 2 h is 17500.
